Literature values as cited in patent US10428067B2, “Compounds and methods for kinase modulation” (Plexxikon Inc., priority 2017, dated 2019).

Test system: FLT3-ITD+ AML patients
Settings: relapsed or chemotherapy-refractory FLT3-ITD+ AML patients, phase II monotherapy (Tallman et al.); cited from earlier work

## CC(C)(C)c1cc(NC(=O)Nc2ccc(-c3cn4c(n3)sc3cc(OCCN5CCOCC5)ccc34)cc2)no1 [quizartinib]
  composite complete remission (CRc) rate: about 50%
